The source of these data is US20060051358A1, “Immune response assessment method” (Baylor Research Institute, priority 2004, published 2006).

Assay [1] relates to CD8+ T cells in melanoma patient PBMCs. Kind of assay: Expansion of antigen-specific CD8+ T cells with peptide-loaded DCs, tetramer staining. As to conditions: PBMC cultured with autologous monocyte-derived DCs loaded with peptide. The assay is classed as cell-based, human. On the procedure:
To check if this patient's PBMCs contain CD8+ T cells recognizing this dominant epitope, PBMCs were cultured with autologous monocyte-derived DCs loaded with MART-127-35 or other HLA-0201 peptides (e.g., Mage-3, Tyrosinase, and Flu-MP), and examined for the induction of antigen-specific CD8+ T cell population with specific tetramers.

In assay [2] the test system is PBMCs obtained from melanoma patients. Description: EPIMAX: PBMC culture with peptides or peptide clusters, multiplex bead cytokine assay (Luminex). The assay is classed as cell-based, human. To be noted: Patient 2, thawed PBMC after DC vaccine, 10 μg/ml peptide, 48 hours.

In the case of “AAGIGILTV [MART-127-35, reference compound]”, the “expansion of MART-1 specific CD8+ T cells (tetramer)” value in assay [1] is “easily expanded within 7 days”. Further, in assay [2], the IL-1α production result is listed as “slight increase” and the IP-10 production result was “marked increase”.
